Test system: Bcap37
Experiment: Cytotoxicity against human Bcap37 cells after 72 hrs by MTT assay
Type: functional, cell-based

Compound: O=C(/C=C/c1ccc(Oc2ncnc3ccccc23)cc1)/C=C/c1cc([N+](=O)[O-])ccc1Cl
- Activity: Dose-dependent effect

— ChEMBL document CHEMBL2429743, “Synthesis and antitumor properties of novel curcumin analogs” (Med Chem Res, 2013)
